Literature values in US20070021421A1 (priority 2005, published 2007).

Tested on: ALS patients
Settings: ALS therapy; cited from earlier work

Nc1nc2ccc(OC(F)(F)F)cc2s1 [Riluzole]
prolongation of survival: 2-3 month
